Source: PubChem BioAssay (Broad Institute)
RAD54 inh = inhibitors of human RAD54 branch migration. Q92698. RAD54 Holliday junction branch migration, FAM/BHQ fluorescence. inhibition, % at 10.4 µM. 0.14% of 360,000 active. AID 602329;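 active means mean normalized replicate activity at least 40 and at least half of replicates scoring 40 or more; inconclusive means only one of the two criteria met; inactive means mean below 40 and under half of replicates reaching 40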;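 further: inhibitors cause a drop in the FAM fluorescence signal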
RAD52 anneal inh = inhibitors of human RAD52 DNA annealing; AID 651710; 0.46% of 360,000 active; P43351; recombinant RAD52 DNA annealing, FRET fluorescence; inhibition, % at 18.7 µM;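 active means every replicate showing at least 50% inhibition; inconclusive means mean inhibition at least 50% but not in every replicate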
E-selectin induc = E-selectin induction on HUVECs | activation, % at 7.58 µM | AID 686992 | P16581 | HUVEC E-selectin immunofluorescence imaging; normalized: neutral wells 0, TNF-alpha wells 100 | 0.37% of 260,000 active;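 active means mean E-selectin-positive cell signal at least 10% of the positive control, reached in at least 60% of replicates, without over 20% cell loss; inconclusive means no rule given, readout overlaps actives, possibly toxicity-flagged; inactive means the rest, including those meeting only one limit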
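Read-out: % PE-positive cells | Test system: HUVEC | Doses: One compound dose added by pin transfer | Buffer or medium: EGM-2 over gelatin coat | Signal: Immunofluorescence imaging | Benchmarks: TNF-alpha, DMSO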
AF4-AF9 inh = blocks AF4 peptide binding to human AF9. 0.47% of 350,000 active. inhibition, % at 10 µM. AlphaScreen, biotin-AF4 peptide binding to FLAG-AF9;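 active means every replicate reaching a set inhibition limit, whatever the replicate mean, cut at about 25% in these data; inconclusive means mean inhibition reaches that limit but some replicates miss it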
Yeast UUG start-1 = modulators of yeast start codon fidelity, primary screen, whole organism, S. cerevisiae, single point, plate reader; S. cerevisiae UUG-firefly luciferase reporter, luminescence/redox ratio; activity score, % at 18.7 µM; actives 0.13% (n = 350,000);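 active means replicate mean at a twofold rise or more, about +100% in these data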;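 further: firefly luciferase made from a UUG start codon reports start codon fidelity; reporter light over untreated wells divided by growth signal over untreated wells; some hits fall short of that in this replicate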
SIRT5 inh = blocks human SIRT5 desuccinylation of peptide | Purified SirT5, succinyl-peptide AMC, trypsin-coupled fluorescence | inhibition, % at 15 µM | 1.1% of 330,000 active | AID 652115; in the data active means inhibition above about 15%; inconclusive means no clear call, values can overlap the other calls
DNA binding = DNA binding artifact in Rad54 counter-screen; shares compounds with RAD54 inh; Acridine orange-DNA displacement, fluorescence polarization, 20 min; AC50, µM (titrated, usually from 35 µM); 8% of 460 active;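 active means signal drop giving an AC50 within twice the top valid tested concentration of each sample, actives reach about 35 µM in these data; inactive means activity opposite to expected, plus the rest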;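 further: polarization loss reports compound binding to salmon sperm DNA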
Yeast UUG start-2 = alters UUG start codon use in yeast. 540 tested, under 10 active. activation, % at 38 µM. shares compounds with Yeast UUG start-1. S. cerevisiae UUG-start firefly luciferase, luminescence, 4 h; 100% means double the DMSO signal;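 active means signal increase whose fitted curve reaches an absolute level of 40 at a concentration under 10 µM; inactive means activity opposite to the expected increase, or the rest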
RAD52 DNA ctr = DNA binding artifact in RAD52 counter-screen; shares compounds with RAD52 anneal inh; Salmon sperm DNA/acridine orange FP displacement; AC50, µM; 8% of 1,000 active; AID 652128;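 active means fitted half-maximal concentration for signal loss at or below twice the highest dose tested, in every separate run, actives reach about 64 µM in these data; inconclusive means runs disagree, or flat partial signal loss, or poor fit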
Hits are given with their value; n = inactive; u = inconclusive; x = no result; ! = a repeat was not active. Most compounds without a hit are left out; they make up all but 1.8% or so of the library.

SMILES	RAD54 inh	RAD52 anneal inh	E-selectin induc	AF4-AF9 inh	Yeast UUG start-1	SIRT5 inh	Yeast UUG start-2	others
CC(=O)Nc1cc(-c2ccc(N3CCN(C)CC3)cc2)cn2c(-c3ccc(S(C)(=O)=O)cc3)cnc12	104	73	n	n	n	x	x	DNA binding=n;RAD52 DNA ctr=n
COc1cccc(-c2cc(NC=O)c3ncc(-c4cccc(C(=O)NCCN(C)C)c4)n3c2)c1	81	94	n	u	n	n	x	DNA binding=n;RAD52 DNA ctr=n
CCN(CC)CCNc1ccc(CO)c2sc3ccccc3c(=O)c12	100	54	n	n	n	n	x	DNA binding=29µM;RAD52 DNA ctr=22µM
COC(=O)c1ccc(COC(=O)c2ccc(CO)cc2)o1	n	n	x	n	185	n	n
COC(=O)c1ccc(Cc2ccc(C(=O)OC)o2)o1	n	n	x	x	n	n	x
O=C(Nc1ccccc1)NC1(c2cn(CC(=O)N3CCN(c4ccccc4)CC3)nn2)CCCCC1	n	n	x	n	124	n	n
COc1ccc2c3c([nH]c2c1)[C@H](CO)N(C(=O)Nc1ccc(F)cc1)CC31CN(CC2CCOCC2)C1	x	n	n	n	x	n	x
CCN(CC)CC#CC(OC)(c1ccccc1)c1ccccc1	x	n	x	n	x	n	n
Cc1cc(=O)[nH]c(=O)n1Cc1ccccc1	n	n	n	n	196	n	n
CN(CC(=O)Nc1cc([N+](=O)[O-])ccc1Cl)Cc1ccc(Br)cc1	n	x	x	x	518	x	n
C[C@@H]1CCCCO[C@H](CN(C)Cc2ccncc2)[C@H](C)CN([C@H](C)CO)C(=O)c2cc(NC(=O)Nc3ccc(F)cc3)ccc2O1	n	x	n	x	n	x	x
CC(C)C[C@@H](CN)NC(=O)c1nc[nH]c1C(=O)N[C@@H](Cc1c[nH]c2ccccc12)C(=O)CNC[C@H](C)NC(=O)c1nc[nH]c1C(=O)N[C@@H](CC(=O)O)C(=O)O	n	n	n	n	180	n	n
CC(C)C[C@@H](CNCC(=O)[C@H](Cc1ccccc1)NC(=O)c1[nH]cnc1C(=O)N[C@@H](C)CN)NC(=O)c1nc[nH]c1C(=O)N[C@@H](CC(=O)O)C(=O)O	n	n	n	n	n	x	x
COc1ccc(NC(=O)N(C)C[C@@H]2Oc3c(NS(=O)(=O)c4ccc(F)cc4)cccc3C(=O)N([C@@H](C)CO)C[C@H]2C)cc1	n	x	n	x	n	x	x
C[C@H](CO)N1C[C@H](C)[C@@H](CN(C)C)Oc2c(NC(=O)Nc3ccc(C(F)(F)F)cc3)cccc2C1=O	n	n	x	n	n	n	x
CNC[C@@H]1Oc2cc(C#CC3CCCCC3)ccc2S(=O)(=O)N([C@@H](C)CO)C[C@@H]1C	n	n	n	n	n	n	x
C[C@H]1CN([C@@H](C)CO)S(=O)(=O)c2ccc(C#CCC3CCCC3)cc2O[C@@H]1CN(C)C(=O)CN(C)C	n	n	n	n	n	n	x
C[C@H](CO)N1C[C@H](C)[C@H](CN(C)Cc2ccc(C(=O)O)cc2)Oc2cc(C#CCC3CCCC3)ccc2S1(=O)=O	n	n	n	n	182	n	n
C[C@@H]1CN([C@@H](C)CO)S(=O)(=O)c2ccc(C#CCC3CCCC3)cc2O[C@@H]1CN(C)Cc1ccc(C(=O)O)cc1	n	n	n	n	n	n	x
C[C@@H]1CN([C@H](C)CO)S(=O)(=O)c2ccc(C#CCC3CCCC3)cc2O[C@@H]1CN(C)C(=O)c1cnccn1	n	n	n	n	n	n	x
CNC[C@H]1Oc2cc(C#CC3CCCCC3)ccc2S(=O)(=O)N([C@H](C)CO)C[C@@H]1C	n	n	n	n	161	n	n
C[C@H](CO)N1C[C@H](C)[C@@H](CN(C)C(=O)c2cnccn2)Oc2cc(C#CCC3CCCC3)ccc2S1(=O)=O	n	n	n	n	121!	n	n
C[C@@H]1CN([C@H](C)CO)S(=O)(=O)c2ccc(C#CCC3CCCC3)cc2O[C@H]1CN(C)C(=O)CN(C)C	n	n	n	n	112	n	n
C[C@H](O)C#Cc1ccc([C@H]2[C@@H](CO)N3CCCCN(C(=O)c4ccc(F)cc4)C[C@H]23)cc1	n	n	n	n	n	n	x
C[C@H](CO)N1C[C@H](C)[C@@H](CN(C)Cc2ccncc2)Oc2ccc(NS(=O)(=O)c3cccs3)cc2CC1=O	n	x	x	x	n	x	x
SMILES	RAD54 inh	RAD52 anneal inh	E-selectin induc	AF4-AF9 inh	Yeast UUG start-1	SIRT5 inh	Yeast UUG start-2	others
C[C@H]1CN([C@@H](C)CO)C(=O)c2cc(NS(=O)(=O)c3cn(C)cn3)ccc2O[C@H]1CN(C)Cc1ccccc1	n	n	n	n	n	n	x
CCOc1ccccc1NC(=O)NC(=O)N(C)S(C)(=O)=O	n	n	x	n	436	n	n
CCCCN(C(=O)NC(=O)Nc1ccccc1OCC)S(C)(=O)=O	n	x	x	x	n	x	x
CC(C)CC#Cc1ccc([C@H]2[C@@H](CO)N3CCCCN(S(=O)(=O)c4ccc(F)cc4)C[C@H]23)cc1	n	n	n	n	81	n	n
CCN(CC)CCNC(=O)Cn1nc(Cc2ccccc2)c2ccccc2c1=O	n	x	x	x	n	x	x
CCN(CC)CCNC(=O)Cc1nn(CC)c(=O)c2ccccc12	n	n	x	n	n	n	n
CCN(CC)CCNC(=O)C(C)c1nn(CC)c(=O)c2ccccc12 (stereo unspecified)	x	n	x	n	x	n	n
C/C=C/c1cnc2c(c1)C(=O)N([C@@H](C)CO)C[C@@H](C)[C@H](CN(C)S(=O)(=O)c1cccs1)O2	x	n	n	n	x	n	x
CO[C@H]1CN(C)C(=O)c2ccc(NC(=O)c3nc4ccccc4s3)cc2OC[C@@H](C)N(Cc2ccncc2)C[C@H]1C	n	n	n	n	140	n	n
CN1C(=O)c2cc(NC(=O)NC3CCCC3)ccc2OC[C@@H]2O[C@H](CC(=O)NCC3CC3)CC[C@@H]21	n	n	n	n	x	n	x
CC(=O)Nc1ccc(OCc2cn(CC(=O)c3ccc(O)cc3)nn2)cc1	n	n	n	n	96	n	n
O=C(Cn1cc(COc2ccccc2C(F)(F)F)nn1)c1ccc(O)cc1	n	n	n	n	141	n	n
COc1cc(C(C)=O)ccc1OCc1cn(CC(=O)c2ccc(O)cc2)nn1	n	n	n	n	157	21	n
Cn1cnc(S(=O)(=O)N[C@@H]2CC[C@@H](CC(=O)N3CCN(c4ccccc4)CC3)O[C@H]2CO)c1	n	n	n	n	n	n	x
CCCc1nc2ccc(C)cn2c1Cc1ccccc1OC	n	n	x	n	n	n	x
CCCc1nc2ccc(C)cn2c1Cc1ccccc1C(F)(F)F	n	n	n	n	105	n	n
